Reference: patent publication EP1903056A2, “HLA-A1, -A2 -A3, -A24, -B7, and -B44 tumor associated antigen peptides and compositions” (priority 2002, dated 2004)

Key:
[1] = target: B*1801 (Homo sapiens, UniProt P01889, A329T/A93T/A95T/C349S/D201E/D54G/D98Y/E176V/E187T/E204Q/E69T/K202T/Q94N/R155S/R180L/S121R/V306I/Y140S/Y195H/Y33H/Y91S); assay: B44 supertype peptide binding, B*1801; details: Her2/neu-derived B44 peptides
[2] = target: B*4001(B60) (Homo sapiens, UniProt P01889, A65T/A93T/A95T/D138N/D98Y/E176V/E69K/N87E/Q56L/Q94N/R180L/S121R/S35A/S48T/T167S/V36M/W171L/Y33H/Y91S); assay: B44 supertype peptide binding, B*4001; details: Her2/neu-derived B44 peptides; read-out: B* 4001
[3] = target: B*4002 (B61) (Homo sapiens, UniProt P01889, A65T/A93T/A95T/D138N/D201E/D98Y/E176V/E204Q/E69K/K202T/N87E/Q56L/Q94N/R180L/S48T/Y33H/Y91S); assay: B44 supertype peptide binding, B*4002; details: Her2/neu-derived B44 peptides; read-out: B* 4002
[4] = target: B*4402 (Homo sapiens, UniProt P01889, A223V/A65T/A93T/A95T/D201E/D98Y/E176V/E187L/E204Q/E69K/G107R/H137Y/K202T/L105A/L119I/N104T/N87E/Q56L/Q94N/R106L/R155S/R180D/S101N/S121R/S35A/S48T/T118I/V36M/W191S/Y140D/Y91S); assay: B44 supertype peptide binding, B*4402; details: Her2/neu-derived B44 peptides; read-out: B* 4402
[5] = system: B44 supertype (B*1801, B*4001, B*4002, B*4402, B*4403, B*4501); assay: B44 supertype cross-binding (degeneracy, number of alleles bound); parameters: species or system human; details: number of the six B44 supertype alleles bound
[6] = target: B*4403 (Homo sapiens, UniProt P01889, A223V/A65T/A93T/A95T/D201E/D98Y/E176V/E187L/E204Q/E69K/G107R/H137Y/K202T/L105A/L119I/N104T/N87E/Q56L/Q94N/R106L/R155S/R180L/S101N/S121R/S35A/S48T/T118I/V36M/W191S/Y140D/Y91S); assay: B44 supertype peptide binding, B*4403; details: Her2/neu-derived B44 peptides; read-out: B* 4403
[7] = target: B*4501 (Homo sapiens, UniProt P01889, A329T/A65T/A93T/A95T/C349S/D138N/D201E/D98Y/E176V/E187L/E204Q/E69K/H137Y/K202T/L119W/N87E/Q56L/Q94N/R155S/R180D/S121R/S35A/S48T/V127L/V306I/V36M/W191S/Y140L/Y33H/Y91S); assay: B44 supertype peptide binding, B*4501; details: Her2/neu-derived B44 peptides; read-out: B* 4501

IC50 [6]	IC50 [7]	Structure (SMILES)	IC50 [1]	IC50 [2]	IC50 [3]	IC50 [4]	Degeneracy [5]
–	–	CC(C)C[C@H](NC(=O)[C@@H]1CCCN1C(=O)[C@H](CO)NC(=O)[C@H](CCCNC(=N)N)NC(=O)[C@@H]1CCCN1C(=O)[C@H](C)NC(=O)[C@H](CCC(=O)O)NC(=O)[C@H](CCC(=O)O)NC(=O)[C@@H](N)CCC(=O)O)C(=O)N[C@@H](C)C(=O)O [compound 566]	6.61 µM	> 10 µM	> 10 µM	3.13 µM	1
–	–	CC(C)C[C@H](NC(=O)[C@@H]1CCCN1C(=O)[C@H](CO)NC(=O)[C@H](CCCNC(=N)N)NC(=O)[C@@H]1CCCN1C(=O)[C@H](C)NC(=O)[C@H](CCC(=O)O)NC(=O)[C@@H](N)CCC(=O)O)C(=O)O [compound 567]	–	3.49 µM	–	3.02 µM	1
–	–	CC(C)[C@H](NC(=O)[C@H](CC(=O)O)NC(=O)[C@@H]1CCCN1C(=O)[C@H](CCC(N)=O)NC(=O)[C@H](CC(N)=O)NC(=O)[C@@H](NC(=O)[C@H](Cc1ccc(O)cc1)NC(=O)[C@H](CCC(=O)O)NC(=O)[C@@H]1CCCN1)C(C)C)C(=O)O [compound 569]	0.831 µM	3.44 µM	1.58 µM	–	1
–	–	C[C@H](NC(=O)CNC(=O)[C@H](CCCNC(=N)N)NC(=O)[C@H](CCC(=O)O)NC(=O)[C@@H]1CCCN1)C(=O)N1CCC[C@H]1C(=O)N1CCC[C@H]1C(=O)N[C@@H](CO)C(=O)N[C@H](C(=O)N[C@@H](Cc1ccccc1)C(=O)O)[C@@H](C)O [compound 572]	–	14.9 µM	3.44 µM	6.87 µM	1
–	–	CC(C)C[C@H](NC(=O)[C@@H](NC(=O)[C@H](CCC(=O)O)NC(=O)[C@H](Cc1ccccc1)NC(=O)[C@@H](NC(=O)[C@H](CCC(N)=O)NC(=O)[C@H](CC(C)C)NC(=O)[C@H](CCC(N)=O)NC(=O)[C@H](CCC(=O)O)NC(=O)[C@@H]1CCCN1)C(C)C)[C@@H](C)O)C(=O)O [compound 579]	–	–	–	–	0
–	–	CC(C)[C@H](NC(=O)[C@H](CS)NC(=O)[C@H](CCC(N)=O)NC(=O)[C@H](CC(=O)O)NC(=O)[C@H](C)NC(=O)[C@H](CCC(=O)O)NC(=O)[C@@H]1CCCN1)C(=O)N[C@@H](C)C(=O)N[C@@H](CS)C(=O)N[C@@H](C)C(=O)N[C@@H](Cc1c[nH]cn1)C(=O)N[C@@H](Cc1ccc(O)cc1)C(=O)O [compound 591]	–	–	–	–	0
2.66 µM	> 10 µM	CC(C)C[C@H](NC(=O)[C@H](CCCNC(=N)N)NC(=O)[C@@H](NC(=O)[C@H](CC(=O)O)NC(=O)[C@H](CCC(=O)O)NC(=O)[C@@H](N)CC(C)C)C(C)C)C(=O)N[C@H](C(=O)O)C(C)C [compound 592]	–	17.4 µM	> 10 µM	> 10 µM	0
10.5 µM	> 10 µM	C[C@H](NC(=O)[C@H](Cc1c[nH]cn1)NC(=O)[C@H](Cc1ccc(O)cc1)NC(=O)[C@H](CCC(=O)O)NC(=O)[C@@H](NC(=O)[C@H](CCC(=O)O)NC(=O)[C@@H](N)CC(=O)O)[C@@H](C)O)C(=O)O [compound 593]	–	> 10 µM	18.3 µM	> 10 µM	0

Structure (SMILES)	IC50 [6]	IC50 [7]	IC50 [1]	IC50 [2]	IC50 [3]	IC50 [4]	Degeneracy [5]
CC(C)C[C@H](NC(=O)[C@H](Cc1ccc(O)cc1)NC(=O)[C@H](CCC(=O)O)NC(=O)[C@@H]1CCCN1)C(=O)N[C@H](C(=O)N1CCC[C@H]1C(=O)N[C@@H](CCC(N)=O)C(=O)NCC(=O)NCC(=O)O)[C@@H](C)O [compound 571]	0.284 µM	–	1.46 µM	–	13.9 µM	6.53 µM	1
CC(C)C[C@H](NC(=O)[C@H](CO)NC(=O)[C@H](CCC(N)=O)NC(=O)[C@H](CS)NC(=O)[C@H](CC(=O)O)NC(=O)[C@H](CCC(=O)O)NC(=O)[C@@H](N)CO)C(=O)N[C@H](C(=O)N[C@@H](CCCNC(=N)N)C(=O)N[C@H](C(=O)O)[C@@H](C)O)[C@@H](C)O [compound 574]	–	5.18 µM	7.26 µM	8.55 µM	11.5 µM	0.518 µM	0
